## AlphaSeq binding of Ab-14 heavy chain variants to a spike HR2 peptide

From the AlphaSeq antibody data of Li et al. 2023 (doi:10.1038/s41467-023-39022-2), copy in the FLAb collection.

Antigen: PDVDLGDISGINAS, a 14-residue peptide of the SARS-CoV-2 spike HR2 region.

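Phage display of a naive human antibody library on the peptide gave the parent. The variants were designed computationally from a first round of random CDR variants and then made and measured. Their group label is 14H_Ctrl (Ctrl: baseline library sampled from a position-specific scoring matrix, with some repeated check sequences). The scFvs were displayed on barcoded MATa yeast, the peptide on MATalpha yeast. After mating in shaken culture at 30 °C for 16 h, diploids were selected and their barcode pairs sequenced. Each replicate has its own calibration line, from reference interactions of the BCL2 family. The assay was run in six technical replicates.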

Parent scFv Ab-14: VH joined to VL by a 15-residue (Gly4Ser)3 linker. Changes lie in the heavy chain CDRs alone.
VH: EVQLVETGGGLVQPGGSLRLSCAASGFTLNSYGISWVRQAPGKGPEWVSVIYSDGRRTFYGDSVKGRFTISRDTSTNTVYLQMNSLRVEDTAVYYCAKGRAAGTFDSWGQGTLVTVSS
VL: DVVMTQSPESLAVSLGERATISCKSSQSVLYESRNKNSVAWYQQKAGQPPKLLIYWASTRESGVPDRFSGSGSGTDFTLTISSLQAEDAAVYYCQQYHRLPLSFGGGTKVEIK

Each variant's VH is given in full.
The read-out is the apparent dissociation constant on a log10 scale (nM): the lower, the stronger.
A pair that was not seen in that replicate is written "n.d."; this usually means weak binding, but a binder can also be missed.
As a blank, each scFv also met three strains without target: over all heavy chain designs, 1% of these pairings were detected, typically at 2.08 and seldom below 0.84. For each scFv, signals with the empty controls are counted beside the result, with their mean in brackets.
The range of this assay differs from that of the first round, and the authors advise against merging the two.
The authors averaged sequences with at least three values out of six and counted those with two or fewer as poor binders.
The parent sequence was in this pool as ten entries: three were never detected, three once, and four in most replicates, with averages from 0.34 to 2.37.

VH	log10 Kd, replicates	control signals
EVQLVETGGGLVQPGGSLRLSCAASGFTLNSYGISWVRQAPGKGPEWVSVIYSDGRRTAMGDSVKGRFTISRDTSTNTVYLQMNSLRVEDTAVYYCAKGRARGTFDSWGQGTLVTVSS	n.d. 1.87 n.d. n.d. n.d. n.d.	0 of 18
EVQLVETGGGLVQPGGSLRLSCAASGFTLNSYGVSWVRQAPGKGPEWVSVIYSDGKRTFYGDSVKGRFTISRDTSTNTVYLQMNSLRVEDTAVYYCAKGMAAGTFDSWGQGTLVTVSS	n.d. n.d. 1.37 n.d. n.d. 2.71	0 of 18
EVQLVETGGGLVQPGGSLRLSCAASGFTLNSYGISWVRQAPGKGPEWVSVIYSDGVRTFYGDSVKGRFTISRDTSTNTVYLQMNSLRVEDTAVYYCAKGRAAGTFDSWGQGTLVTVSS	1.06 1.45 1.79 2.03 1.18 n.d.	0 of 18
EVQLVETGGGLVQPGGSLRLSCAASGFTLNSYGISWVRQAPGKGPEWVSVIYSDWRRTFYSDSVKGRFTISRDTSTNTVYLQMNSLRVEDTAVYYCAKGRAAGTFDLWGQGTLVTVSS	n.d. n.d. n.d. n.d. n.d. 2.50	0 of 18
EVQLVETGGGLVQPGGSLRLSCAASGFTLNQYGISWVRQAPGKGPEWVSVIYSDGRRTAYGDSVKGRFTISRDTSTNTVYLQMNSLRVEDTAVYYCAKGSEAGTFDSWGQGTLVTVSS	-0.63 -0.63 -0.73 -0.73 -0.38 -0.19	0 of 18
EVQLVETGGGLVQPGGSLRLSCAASGRTLNSHGISWVRQAPGKGPEWVSVIYSDGRRTFYGDSVKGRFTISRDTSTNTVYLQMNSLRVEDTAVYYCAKGRAAGTFDSWGQGTLVTVSS	0.85 0.68 0.52 0.60 0.23 0.45	1 of 18 (2.33)
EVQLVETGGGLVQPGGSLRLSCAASGNTLNSYGISWVRQAPGKGPEWVSVIYSDGRRTFYGDSVKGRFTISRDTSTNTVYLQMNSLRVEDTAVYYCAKGRAAGYFDSWGQGTLVTVSS	n.d. n.d. n.d. n.d. n.d. n.d.	1 of 18 (2.06)
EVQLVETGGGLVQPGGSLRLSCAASGFTLNSYGISWVRQAPGKGPEWVSVIYRDGRRTFYNDSVKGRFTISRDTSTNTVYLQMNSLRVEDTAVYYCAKGRAAGTKDSWGQGTLVTVSS	n.d. n.d. n.d. n.d. n.d. n.d.	0 of 18
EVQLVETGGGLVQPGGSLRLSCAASGFTLNMYGISWVRQAPGKGPEWVSVIYSDGRRTFYGDSVVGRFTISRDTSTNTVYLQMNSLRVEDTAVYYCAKGGAAGTFDSWGQGTLVTVSS	n.d. n.d. n.d. n.d. n.d. n.d.	0 of 18
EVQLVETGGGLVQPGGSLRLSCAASGFTLNSYGISWVRQAPGKGPEWVSVIYSDGRRTFYADSVKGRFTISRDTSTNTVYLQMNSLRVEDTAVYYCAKGYAAWTFDSWGQGTLVTVSS	n.d. n.d. n.d. n.d. n.d. n.d.	0 of 18
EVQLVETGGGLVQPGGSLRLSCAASGATLNSYGISWVRQAPGKGPEWVSVIYSDGRRTFYGDSVKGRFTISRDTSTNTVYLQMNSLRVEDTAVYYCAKGRAAGTFDSWGQGTLVTVSS	n.d. 2.21 n.d. n.d. 2.10 n.d.	0 of 18
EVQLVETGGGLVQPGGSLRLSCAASGFNLNSYGISWVRQAPGKGPEWVSVIYSDGRRTFYGDSVKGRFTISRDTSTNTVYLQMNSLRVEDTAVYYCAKGRAAGTGDSWGQGTLVTVSS	n.d. n.d. n.d. n.d. n.d. n.d.	0 of 18
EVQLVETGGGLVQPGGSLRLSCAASGFTLQSYGISWVRQAPGKGPEWVSVIYSDGRRTFYGDSVKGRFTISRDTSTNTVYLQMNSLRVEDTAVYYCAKGRWAGTFDSWGQGTLVTVSS	n.d. n.d. n.d. 0.45 n.d. n.d.	0 of 18
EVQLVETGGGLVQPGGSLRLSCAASGFTLNMYGISWVRQAPGKGPEWVSVIYSDGQRTFYGDSSKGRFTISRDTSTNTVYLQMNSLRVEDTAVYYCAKGRLICTFDSWGQGTLVTVSS	n.d. n.d. n.d. n.d. n.d. n.d.	0 of 18
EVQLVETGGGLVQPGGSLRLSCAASGFTLNSYGISWVRQAPGKGPEWVSVIYSDGRRTQYGDSVKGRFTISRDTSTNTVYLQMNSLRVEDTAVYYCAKGRQAGTFDSWGQGTLVTVSS	2.78 2.14 1.84 n.d. n.d. n.d.	0 of 18
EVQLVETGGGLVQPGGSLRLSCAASGETLNSYGISWVRQAPGKGPEWVSVIYSDGIRTFYKDSVRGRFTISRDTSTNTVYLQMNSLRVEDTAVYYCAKGSAADTFDSWGQGTLVTVSS	n.d. n.d. n.d. n.d. n.d. n.d.	0 of 18
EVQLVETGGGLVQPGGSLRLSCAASGFTLNSYGISWVRQAPGKGPEWVSVIYSDGRRTFYQDSVKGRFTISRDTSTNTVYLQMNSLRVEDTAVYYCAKGRLAGTFDSWGQGTLVTVSS	n.d. 0.31 0.92 0.93 0.63 1.13	0 of 18
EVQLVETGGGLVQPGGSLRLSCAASGFTLNSYGISWVRQAPGKGPEWVSVMYSDGRRTFYTDSVKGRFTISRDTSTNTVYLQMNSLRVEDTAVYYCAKGRIAGTFDLWGQGTLVTVSS	n.d. n.d. 1.71 2.16 1.45 2.62	0 of 18
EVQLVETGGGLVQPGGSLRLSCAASGFNLNKYGISWVRQAPGKGPEWVSVIYSDGVRTFYGDSVKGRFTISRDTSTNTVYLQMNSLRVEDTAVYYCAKGTAAGTFCSWGQGTLVTVSS	n.d. n.d. n.d. n.d. n.d. n.d.	1 of 18 (-0.46)
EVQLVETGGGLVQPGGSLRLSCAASGFTLNEYGISWVRQAPGKGPEWVSVIYSDGRRTFYGDQVKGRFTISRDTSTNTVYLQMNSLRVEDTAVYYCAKGKAGGTFDSWGQGTLVTVSS	2.26 0.88 0.83 1.26 1.23 1.03	0 of 18
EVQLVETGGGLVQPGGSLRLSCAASGFTVNSYGISWVRQAPGKGPEWVSVIYSCGRRTFYGDSVKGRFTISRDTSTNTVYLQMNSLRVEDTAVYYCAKGRAAGTFTVWGQGTLVTVSS	n.d. n.d. n.d. n.d. n.d. n.d.	0 of 18

The first 2 variants above that were never detected:

VH	log10 Kd, replicates	control signals
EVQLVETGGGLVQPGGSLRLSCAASGNTLNSYGISWVRQAPGKGPEWVSVIYSDGRRTFYGDSVKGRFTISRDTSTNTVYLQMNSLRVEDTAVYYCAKGRAAGYFDSWGQGTLVTVSS	n.d. n.d. n.d. n.d. n.d. n.d.	1 of 18 (2.06)
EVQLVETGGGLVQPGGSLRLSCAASGFTLNSYGISWVRQAPGKGPEWVSVIYRDGRRTFYNDSVKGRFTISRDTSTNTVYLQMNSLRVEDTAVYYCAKGRAAGTKDSWGQGTLVTVSS	n.d. n.d. n.d. n.d. n.d. n.d.	0 of 18